IC50 data for one compound are collected here from paper PMC7415805 (Theranostics, 2020).

By UniProt entry, the sequences of proteins in these tests, tags left out.
UniProt P30536, whole entry, stated change not applied: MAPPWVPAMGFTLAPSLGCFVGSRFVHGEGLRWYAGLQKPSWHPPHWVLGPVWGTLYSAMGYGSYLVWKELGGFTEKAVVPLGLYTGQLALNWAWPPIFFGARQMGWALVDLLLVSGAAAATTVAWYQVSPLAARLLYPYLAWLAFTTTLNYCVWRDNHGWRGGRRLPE
UniProt P30536, whole entry T147A: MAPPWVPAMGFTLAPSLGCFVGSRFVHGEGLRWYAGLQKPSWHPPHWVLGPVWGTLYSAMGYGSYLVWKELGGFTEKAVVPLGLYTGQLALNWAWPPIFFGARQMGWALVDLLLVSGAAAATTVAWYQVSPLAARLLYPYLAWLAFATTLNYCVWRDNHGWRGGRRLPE

The target in one experiment is TSPO A147T mutant (LAB) (Homo sapiens, UniProt P30536). Nature of the experiment: biochemical.
The next experiment has as its target T1, TSPO WT (HAB) (Homo sapiens, UniProt P30536, T147A).
T1 construct: unnamed tag of the 'tagged ORF clone' (own knowledge: OriGene RG clones carry a C-terminal TurboGFP); host or cells: 293FT
Nature of the experiment: Competitive inhibition assay with [3H]PK11195 on membrane proteins, HAB. Format: binding.

Consider `CCC(C)N(C)C(=O)c1cc2ccccc2c(-c2ccccc2Cl)n1` (centres unmarked) [PK11195], for which the values for the IC50 against TSPO A147T mutant (LAB) and on TSPO WT (HAB) were 5.01 µM and 6.05 µM, respectively.
